According to IntAct's records for PubMed 17577629:

B1: RAC-alpha serine/threonine-protein kinase (Homo sapiens), P31749 (parent)
chain: MSDVAIVKEGWLHKRGEYIKTWRPRYFLLKNDGTFIGYKERPQDVDQREAPLNNFSVAQCQLMKTERPRPNTFIIRCLQWTTVIERTFHVETPEEREEWTTAIQTVADGLKKQEEEEMDFRSGSPSDNSGAEEMEVSLAKPKHRVTMNEFEYLKLLGKGTFGKVILVKEKATGRYYAMKILKKEVIVAKDEVAHTLTENRVLQNSRHPFLTALKYSFQTHDRLCFVMEYANGGELFFHLSRERVFSEDRARFYGAEIVSALDYLHSEKNVVYRDLKLENLMLDKDGHIKITDFGLCKEGIKDGATMKTFCGTPEYLAPEVLEDNDYGRAVDWWGLGVVMYEMMCGRLPFYNQDHEKLFELILMEEIRFPRTLGPEAKSLLSGLLKKDPKQRLGGGSEDAKEIMQHRFFAGIVWQHVYEKKLSPPFKPQVTSETDTRYFDEEFTAQMITITPPDQDDSMECVDSERRPHFPQFSYSASGTA

Variants of: B1
Conditions: with setb1_human SETDB1

effect of a mutation on the interaction | Variant
increasing interaction | MSDVAIVKEGWLHKRGEYIKTWRPRYFLLKNDGTFIGYKKRPQDVDQREAPLNNFSVAQCQLMKTERPRPNTFIIRCLQWTTVIERTFHVETPEEREEWTTAIQTVADGLKKQEEEEMDFRSGSPSDNSGAEEMEVSLAKPKHRVTMNEFEYLKLLGKGTFGKVILVKEKATGRYYAMKILKKEVIVAKDEVAHTLTENRVLQNSRHPFLTALKYSFQTHDRLCFVMEYANGGELFFHLSRERVFSEDRARFYGAEIVSALDYLHSEKNVVYRDLKLENLMLDKDGHIKITDFGLCKEGIKDGATMKTFCGTPEYLAPEVLEDNDYGRAVDWWGLGVVMYEMMCGRLPFYNQDHEKLFELILMEEIRFPRTLGPEAKSLLSGLLKKDPKQRLGGGSEDAKEIMQHRFFAGIVWQHVYEKKLSPPFKPQVTSETDTRYFDEEFTAQMITITPPDQDDSMECVDSERRPHFPQFSYSASGTA [E40K]
decreasing interaction | MSDVAIVKEGWLHKRGEYIKTWRPRYFLLKNDGTFIGYKERPQDVDQREAPLNNFSVAQCQLMKTERPRPNTFIIRCLQWTTVIERTFHVETPEEREEWTTAIQTVADGLKKQEEEEMDFRSGSPSDNSGAEEMEVSLAKPKHRVTMNEFEYLKLLGKGTFGKVILVKEKATGRYYAMMILKKEVIVAKDEVAHTLTENRVLQNSRHPFLTALKYSFQTHDRLCFVMEYANGGELFFHLSRERVFSEDRARFYGAEIVSALDYLHSEKNVVYRDLKLENLMLDKDGHIKITDFGLCKEGIKDGATMKTFCGTPEYLAPEVLEDNDYGRAVDWWGLGVVMYEMMCGRLPFYNQDHEKLFELILMEEIRFPRTLGPEAKSLLSGLLKKDPKQRLGGGSEDAKEIMQHRFFAGIVWQHVYEKKLSPPFKPQVTSETDTRYFDEEFTAQMITITPPDQDDSMECVDSERRPHFPQFSYSASGTA [K179M]
